Experimental data taken from ChEMBL document CHEMBL2417476, “Structure-activity relationships of benzimidazole-based glutaminyl cyclase inhibitors featuring a heteroaryl scaffold” (J Med Chem, 2013).

Legend:
Homo sapiens [1] = species: Homo sapiens; experiment: Selectivity ratio of Ki for human glutaminyl cyclase K144M mutant to Ki for wild type human glutaminyl cyclase
Homo sapiens [2] = species: Homo sapiens; experiment: Selectivity ratio of Ki for human glutaminyl cyclase F325Y mutant to Ki for wild type human glutaminyl cyclase
Homo sapiens [3] = species: Homo sapiens; experiment: Selectivity ratio of Ki for human glutaminyl cyclase W329Y mutant to Ki for wild type human glutaminyl cyclase
Homo sapiens [4] = species: Homo sapiens; experiment: Selectivity ratio of Ki for human glutaminyl cyclase K144R mutant to Ki for wild type human glutaminyl cyclase
Homo sapiens [5] = species: Homo sapiens; experiment: Selectivity ratio of Ki for human glutaminyl cyclase K144A mutant to Ki for wild type human glutaminyl cyclase
Homo sapiens [6] = species: Homo sapiens; experiment: Selectivity ratio of Ki for human glutaminyl cyclase W207L mutant to Ki for wild type human glutaminyl cyclase
Homo sapiens [7] = species: Homo sapiens; experiment: Selectivity ratio of Ki for human glutaminyl cyclase W207F mutant to Ki for wild type human glutaminyl cyclase
Homo sapiens [8] = species: Homo sapiens; experiment: Selectivity ratio of Ki for human glutaminyl cyclase I303V mutant to Ki for wild type human glutaminyl cyclase
Homo sapiens [9] = species: Homo sapiens; experiment: Selectivity ratio of Ki for human glutaminyl cyclase W329F mutant to Ki for wild type human glutaminyl cyclase
Homo sapiens [10] = species: Homo sapiens; experiment: Selectivity ratio of Ki for human glutaminyl cyclase I303F mutant to Ki for wild type human glutaminyl cyclase
Homo sapiens [11] = species: Homo sapiens; experiment: Selectivity ratio of Ki for human glutaminyl cyclase W207Q mutant to Ki for wild type human glutaminyl cyclase
Homo sapiens [12] = species: Homo sapiens; experiment: Selectivity ratio of Ki for human glutaminyl cyclase H206A mutant to Ki for wild type human glutaminyl cyclase
Homo sapiens [13] = species: Homo sapiens; experiment: Selectivity ratio of Ki for human glutaminyl cyclase F325N mutant to Ki for wild type human glutaminyl cyclase
Homo sapiens [14] = species: Homo sapiens; experiment: Selectivity ratio of Ki for human glutaminyl cyclase H206Q mutant to Ki for wild type human glutaminyl cyclase
Homo sapiens [15] = species: Homo sapiens; experiment: Selectivity ratio of Ki for human glutaminyl cyclase I303N mutant to Ki for wild type human glutaminyl cyclase
Homo sapiens [16] = species: Homo sapiens; experiment: Selectivity ratio of Ki for human glutaminyl cyclase F325A mutant to Ki for wild type human glutaminyl cyclase
Homo sapiens [17] = species: Homo sapiens; experiment: Selectivity ratio of Ki for human glutaminyl cyclase I303A mutant to Ki for wild type human glutaminyl cyclase

`c1ccc2[nH]cnc2c1` [BENZIMIDAZOLE] showed a Ratio Ki (Homo sapiens [1]) of 1.1, a Ratio Ki (Homo sapiens [2]) of 5.6 and a Ratio Ki (Homo sapiens [3]) of 4. For the same compound, the Ratio Ki (Homo sapiens [4]) was 1.7, the Ratio Ki (Homo sapiens [5]) was 1.1 and the Ratio Ki (Homo sapiens [6]) was 0.7. For the same compound, the Ratio Ki (Homo sapiens [7]) was 0.8, the Ratio Ki (Homo sapiens [8]) was 1.2 and the Ratio Ki (Homo sapiens [9]) was 0.3. For the same compound, the Ratio Ki (Homo sapiens [10]) was 2.2, the Ratio Ki (Homo sapiens [11]) was 1.1 and the Ratio Ki (Homo sapiens [12]) was 1. For the same compound, the Ratio Ki (Homo sapiens [13]) was 6.7, the Ratio Ki (Homo sapiens [14]) was 0.9 and the Ratio Ki (Homo sapiens [15]) was 1.8. For the same compound, the Ratio Ki (Homo sapiens [16]) was 11.4 and the Ratio Ki (Homo sapiens [17]) was 1.4.
